Patent EP4834897A1, “COMPOUNDS WITH TWO AZAHETEROCYCLES SUBSTITUTED ISOINDOLINONE SKELETON AND USES THEREOF” (dated 2026)

By UniProt entry, the sequences of proteins in these tests, tags left out.
UniProt Q96SW2, whole entry: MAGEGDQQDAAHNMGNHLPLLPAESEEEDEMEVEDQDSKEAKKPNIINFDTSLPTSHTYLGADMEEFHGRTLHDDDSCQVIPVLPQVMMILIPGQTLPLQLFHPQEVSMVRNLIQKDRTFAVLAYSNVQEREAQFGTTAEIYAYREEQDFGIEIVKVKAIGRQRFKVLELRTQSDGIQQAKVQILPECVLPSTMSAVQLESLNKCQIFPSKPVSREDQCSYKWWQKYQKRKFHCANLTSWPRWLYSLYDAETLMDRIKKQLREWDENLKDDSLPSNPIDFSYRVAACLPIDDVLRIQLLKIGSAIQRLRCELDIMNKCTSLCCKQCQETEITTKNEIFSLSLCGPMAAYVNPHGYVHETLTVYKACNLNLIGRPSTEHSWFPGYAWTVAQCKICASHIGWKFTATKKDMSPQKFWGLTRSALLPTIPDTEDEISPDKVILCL
UniProt P48729, whole entry: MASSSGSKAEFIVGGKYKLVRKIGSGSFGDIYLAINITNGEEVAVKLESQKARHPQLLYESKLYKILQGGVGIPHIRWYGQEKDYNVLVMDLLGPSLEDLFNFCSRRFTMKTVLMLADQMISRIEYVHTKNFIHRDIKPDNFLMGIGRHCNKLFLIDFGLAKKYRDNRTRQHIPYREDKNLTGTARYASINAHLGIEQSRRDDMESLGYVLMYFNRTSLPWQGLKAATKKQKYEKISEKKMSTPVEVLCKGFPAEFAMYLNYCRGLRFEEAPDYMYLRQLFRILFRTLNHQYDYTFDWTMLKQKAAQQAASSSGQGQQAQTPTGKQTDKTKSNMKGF
UniProt Q13422, whole entry: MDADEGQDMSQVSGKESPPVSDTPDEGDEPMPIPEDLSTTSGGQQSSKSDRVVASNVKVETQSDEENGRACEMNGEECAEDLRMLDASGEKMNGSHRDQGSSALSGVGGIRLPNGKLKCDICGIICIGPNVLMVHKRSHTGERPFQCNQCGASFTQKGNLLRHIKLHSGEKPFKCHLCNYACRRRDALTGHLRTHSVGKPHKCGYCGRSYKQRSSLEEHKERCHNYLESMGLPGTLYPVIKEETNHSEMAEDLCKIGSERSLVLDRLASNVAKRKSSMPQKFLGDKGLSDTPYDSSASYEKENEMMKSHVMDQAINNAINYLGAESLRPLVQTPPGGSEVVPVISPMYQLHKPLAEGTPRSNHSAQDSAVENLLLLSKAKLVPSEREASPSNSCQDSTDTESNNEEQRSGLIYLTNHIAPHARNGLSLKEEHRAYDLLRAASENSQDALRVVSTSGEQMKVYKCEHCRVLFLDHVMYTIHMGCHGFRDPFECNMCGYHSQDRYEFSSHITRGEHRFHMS
UniProt P30291, whole entry: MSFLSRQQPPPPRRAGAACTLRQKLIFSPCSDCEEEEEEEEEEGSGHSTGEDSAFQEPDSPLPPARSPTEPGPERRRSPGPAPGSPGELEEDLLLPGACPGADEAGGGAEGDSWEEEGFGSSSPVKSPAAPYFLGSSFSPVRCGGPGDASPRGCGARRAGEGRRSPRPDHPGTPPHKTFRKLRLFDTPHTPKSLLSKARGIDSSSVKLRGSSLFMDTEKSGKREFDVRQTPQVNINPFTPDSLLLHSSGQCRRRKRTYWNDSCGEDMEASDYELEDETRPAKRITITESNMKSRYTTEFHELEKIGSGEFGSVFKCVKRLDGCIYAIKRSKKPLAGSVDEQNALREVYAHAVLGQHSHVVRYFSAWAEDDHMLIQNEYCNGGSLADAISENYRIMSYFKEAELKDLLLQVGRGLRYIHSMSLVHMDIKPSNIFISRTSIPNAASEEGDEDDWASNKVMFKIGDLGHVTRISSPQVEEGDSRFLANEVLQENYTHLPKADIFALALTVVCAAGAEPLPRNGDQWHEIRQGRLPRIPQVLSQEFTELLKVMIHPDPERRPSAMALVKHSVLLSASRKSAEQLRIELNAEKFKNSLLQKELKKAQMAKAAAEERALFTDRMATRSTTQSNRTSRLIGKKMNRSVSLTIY
UniProt Q9UKS7, whole entry: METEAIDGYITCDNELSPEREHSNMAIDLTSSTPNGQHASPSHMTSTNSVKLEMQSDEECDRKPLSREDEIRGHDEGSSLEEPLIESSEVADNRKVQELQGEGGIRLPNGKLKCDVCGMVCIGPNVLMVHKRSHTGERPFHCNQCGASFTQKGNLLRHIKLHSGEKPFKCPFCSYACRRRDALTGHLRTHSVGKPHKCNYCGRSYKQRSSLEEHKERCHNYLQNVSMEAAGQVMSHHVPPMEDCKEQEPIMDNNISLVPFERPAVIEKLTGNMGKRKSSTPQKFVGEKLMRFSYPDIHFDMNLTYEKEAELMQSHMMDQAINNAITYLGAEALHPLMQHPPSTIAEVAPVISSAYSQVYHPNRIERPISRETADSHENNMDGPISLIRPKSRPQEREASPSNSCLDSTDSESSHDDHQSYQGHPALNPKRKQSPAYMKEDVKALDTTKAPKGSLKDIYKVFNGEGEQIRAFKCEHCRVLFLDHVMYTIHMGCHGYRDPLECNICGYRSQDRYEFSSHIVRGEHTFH
UniProt P15170, whole entry: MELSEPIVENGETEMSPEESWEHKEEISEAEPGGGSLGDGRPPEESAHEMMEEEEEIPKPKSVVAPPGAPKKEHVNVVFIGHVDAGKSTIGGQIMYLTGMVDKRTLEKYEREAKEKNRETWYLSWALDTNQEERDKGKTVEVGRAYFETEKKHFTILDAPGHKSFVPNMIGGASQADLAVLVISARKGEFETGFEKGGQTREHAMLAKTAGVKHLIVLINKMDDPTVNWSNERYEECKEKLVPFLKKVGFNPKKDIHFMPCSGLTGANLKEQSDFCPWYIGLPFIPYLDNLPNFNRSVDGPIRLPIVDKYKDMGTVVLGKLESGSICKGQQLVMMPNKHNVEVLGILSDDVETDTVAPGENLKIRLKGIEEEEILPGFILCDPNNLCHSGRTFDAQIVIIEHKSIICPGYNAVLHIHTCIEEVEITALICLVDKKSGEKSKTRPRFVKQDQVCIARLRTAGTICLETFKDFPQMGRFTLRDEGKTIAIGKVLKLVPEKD
UniProt Q9UKT9, whole entry: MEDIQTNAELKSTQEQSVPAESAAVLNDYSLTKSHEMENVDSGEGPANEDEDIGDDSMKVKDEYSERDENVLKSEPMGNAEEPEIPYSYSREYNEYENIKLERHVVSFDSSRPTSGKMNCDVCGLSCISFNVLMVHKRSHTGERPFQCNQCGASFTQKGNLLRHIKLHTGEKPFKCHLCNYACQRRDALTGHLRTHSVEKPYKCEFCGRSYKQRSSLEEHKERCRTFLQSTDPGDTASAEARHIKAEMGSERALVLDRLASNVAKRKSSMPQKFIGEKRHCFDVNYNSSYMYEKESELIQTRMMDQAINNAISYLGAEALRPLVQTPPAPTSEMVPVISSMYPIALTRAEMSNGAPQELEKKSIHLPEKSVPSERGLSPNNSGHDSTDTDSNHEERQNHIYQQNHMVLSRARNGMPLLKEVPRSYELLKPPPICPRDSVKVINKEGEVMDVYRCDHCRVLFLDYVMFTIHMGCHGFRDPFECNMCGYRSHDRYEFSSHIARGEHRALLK
UniProt Q16531, whole entry partner: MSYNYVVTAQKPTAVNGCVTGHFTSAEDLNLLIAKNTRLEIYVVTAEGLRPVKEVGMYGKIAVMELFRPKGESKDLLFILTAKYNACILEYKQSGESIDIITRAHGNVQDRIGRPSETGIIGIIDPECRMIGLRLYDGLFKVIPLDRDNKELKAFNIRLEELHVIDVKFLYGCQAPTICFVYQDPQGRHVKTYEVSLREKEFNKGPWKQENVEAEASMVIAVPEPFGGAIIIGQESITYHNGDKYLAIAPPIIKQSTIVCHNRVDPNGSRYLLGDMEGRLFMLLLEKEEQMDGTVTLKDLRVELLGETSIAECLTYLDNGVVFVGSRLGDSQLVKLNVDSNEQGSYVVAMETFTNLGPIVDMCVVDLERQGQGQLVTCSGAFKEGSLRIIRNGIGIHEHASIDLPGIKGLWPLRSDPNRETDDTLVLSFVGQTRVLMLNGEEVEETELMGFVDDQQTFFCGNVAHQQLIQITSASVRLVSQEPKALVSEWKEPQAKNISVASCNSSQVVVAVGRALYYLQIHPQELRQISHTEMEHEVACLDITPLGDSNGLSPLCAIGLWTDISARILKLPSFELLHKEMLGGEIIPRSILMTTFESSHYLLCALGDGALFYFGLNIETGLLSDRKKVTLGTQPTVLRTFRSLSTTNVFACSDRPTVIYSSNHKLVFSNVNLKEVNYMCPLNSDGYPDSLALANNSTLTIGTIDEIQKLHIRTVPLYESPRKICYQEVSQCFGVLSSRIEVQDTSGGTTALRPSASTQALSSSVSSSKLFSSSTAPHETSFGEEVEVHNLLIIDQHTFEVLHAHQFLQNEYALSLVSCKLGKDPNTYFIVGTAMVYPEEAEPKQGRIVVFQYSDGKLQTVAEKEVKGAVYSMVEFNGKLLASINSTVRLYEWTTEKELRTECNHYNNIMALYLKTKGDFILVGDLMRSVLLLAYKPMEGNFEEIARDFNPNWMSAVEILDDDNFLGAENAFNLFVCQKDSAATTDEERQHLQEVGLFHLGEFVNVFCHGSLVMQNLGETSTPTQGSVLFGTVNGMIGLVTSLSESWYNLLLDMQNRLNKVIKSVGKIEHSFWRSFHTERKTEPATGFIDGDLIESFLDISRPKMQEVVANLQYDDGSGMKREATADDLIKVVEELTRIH

Experiments:
CRBN = CRBN (Homo sapiens, UniProt Q96SW2); assay: CRBN binding affinity by HTRF (CEREBLON BINDING kit); settings: CRBN binding, HTRF; for Inhibition Rate at 0.5 µM (%): compound at 0.5 µM; for Inhibition Rate at 2 µM (%): compound at 2 µM
IL-2 = assay: Inflammatory cytokine release from PBMCs induced by PHA (flow cytometry CBA); settings: PBMCs, PHA 1 µg/mL, 24 h
[1] = system: Human myeloid monocytic leukemia cell (MV-4-11); assay: Tumor cell proliferation inhibition (cell viability assay); settings: MV-4-11 cells, 96 hours
CK1α = CK1α (Homo sapiens, UniProt P48729+Q96SW2); assay: Western blot assay of substrate protein degradation in hPBMCs; settings: 24 hours treatment, compounds at 50 nM and 500 nM (concentration behind the class not stated)
IKZF1 = IKZF1 (Homo sapiens, UniProt Q13422+Q96SW2); assay: as above; settings: 24 hours treatment, compounds at 50 nM and 500 nM (concentration behind the class not stated)
WEE1 = WEE1 (Homo sapiens, UniProt P30291+Q96SW2); assay: as above; settings: 24 hours treatment, compounds at 50 nM and 500 nM (concentration behind the class not stated)
IKZF2 = IKZF2 (Homo sapiens, UniProt Q96SW2+Q9UKS7); assay: as above; settings: 24 hours treatment, compounds at 50 nM and 500 nM (concentration behind the class not stated)
GSPT1 = GSPT1 (Homo sapiens, UniProt P15170+Q96SW2); assay: as above; settings: 24 hours treatment, compounds at 50 nM and 500 nM (concentration behind the class not stated)
IKZF3 = IKZF3 (Homo sapiens, UniProt Q96SW2+Q9UKT9); assay: as above; settings: 24 hours treatment, compounds at 50 nM and 500 nM (concentration behind the class not stated)
IL-5 = assay: Inflammatory cytokine release from PBMCs induced by PMA + Ionomycin (flow cytometry CBA); settings: 24 h
GM-CSF = assay: as above; settings: 24 h
IL-1α = assay: Inflammatory cytokine release from PBMCs induced by PHA (flow cytometry CBA); settings: PHA 1 µg/mL, 24 h
IL-10 = assay: as above; settings: PBMCs, PHA 1 µg/mL, 24 h
TNF-α = assay: as above; settings: PHA 1 µg/mL, 24 h

Inhibition Rate at 0.5 µM (%) (CRBN) | Inhibition Rate at 2 µM (%) (CRBN) | Structure (SMILES) | Inhibition Rate (%) IL-2 (IL-2; 0.1 µM) | Inhibition Rate (%) IL-2 (IL-2; 1 µM) | Inhibition Rate at 10 nM (%) [1] | Inhibition Rate at 500 nM (%) [1] | substrate protein remaining % (CK1a) (CK1α) | substrate protein remaining % (IKZF 1) (IKZF1) | substrate protein remaining % (WEE1) (WEE1) | substrate protein remaining % (IKZF2) (IKZF2) | substrate protein remaining % (GSPT1) (GSPT1) | substrate protein remaining % (IKZF3) (IKZF3) | Inhibition Rate (%) IL-5 (IL-5; 0.1 µM) | Inhibition Rate (%) IL-5 (IL-5; 1 µM) | Inhibition Rate (%) GM-CSF (GM-CSF; 0.1 µM) | Inhibition Rate (%) GM-CSF (GM-CSF; 1 µM) | further results
a7 (70% < a7 ≤80%) | a8 (80% < a8 ≤100%) | O=C1CCC(N2Cc3cc(CCCN4CCC(N5CCN(C(c6ccccc6)c6ccccn6)CC5)C(F)(F)C4)ccc3C2=O)C(=O)N1 (stereo not drawn) | IV9 (40% < IV9 ≤ 50%) | IV1 0 | 1a7 (50% ≤ 1a7 < 60%) | 1a7 (50% ≤ 1a7 < 60%) | B (80%< substrate protein remaining %≤ 100%) | B (80%< substrate protein remaining %≤ 100%) | B (80%< substrate protein remaining %≤ 100%) | B (80%< substrate protein remaining %≤ 100%) | A (0% ≤ substrate protein remaining % ≤ 80%) | B (80%< substrate protein remaining %≤ 100%) | IV9 (40% < IV9 ≤ 50%) | IV9 (40% < IV9 ≤ 50%) | IV10 (50% < IV 10 ≤ 60%) | IV1 0 | 
a3 (30% < a3 ≤ 40%) | a6 (60% < a6 ≤ 70%) | O=C1CCC(N2Cc3cccc(C(=O)N4CCC(N5CCN(c6noc7cc(F)ccc67)CC5)C(F)(F)C4)c3C2=O)C(=O)N1 (stereo not drawn) |  |  |  |  |  |  |  |  |  |  | IV8 (30% < IV8 ≤ 40%) | IV9 (40% < IV9 ≤ 50%) |  |  | 
 |  | O=C1CCN(N2C(=O)c3ccc(CN4CCC(N5CCN(c6noc7cc(F)ccc67)CC5)CC4)cc3C2=O)C(=O)N1 | IV9 (40% < IV9 ≤ 50%) | IV9 (40% < IV9 ≤ 50%) |  |  |  |  |  |  |  |  | IV7 (20% < IV7 ≤ 30%) | IV9 (40% < IV9 ≤ 50%) |  |  | 
a6 (60% < a6 ≤ 70%) | a8 (80% < a8 ≤100%) | O=C1CCC(N2Cc3cc(CCN4CCC(N5CCN(C(c6ccccc6)c6ccccc6)CC5)CC4)ccc3C2=O)C(=O)N1 (stereo not drawn) |  |  |  |  | B (80%< substrate protein remaining %≤ 100%) | A (0% ≤ substrate protein remaining % ≤ 80%) | B (80%< substrate protein remaining %≤ 100%) | A (0% ≤ substrate protein remaining % ≤ 80%) | B (80%< substrate protein remaining %≤ 100%) | A (0% ≤ substrate protein remaining % ≤ 80%) |  |  |  |  | Inhibition Rate (%) IL-1α (IL-1α; 0.1 µM): IV11 (60% < IV11 ≤ 70%); Inhibition Rate (%) IL-1α (IL-1α; 1 µM): IV1 1; Inhibition Rate (%) IL-10 (IL-10; 0.1 µM): IV8 (30% < IV8 ≤ 40%); Inhibition Rate (%) IL-10 (IL-10; 1 µM): IV9 (40% < IV9 ≤ 50%); Inhibition Rate (%) TNF-α (TNF-α; 0.1 µM): IV10 (50% < IV 10 ≤ 60%); Inhibition Rate (%) TNF-α (TNF-α; 1 µM): IV1 1
a3 (30% < a3 ≤ 40%) | a6 (60% < a6 ≤ 70%) | O=C1CCC(N2Cc3cccc(CN4CCC(N5CCN(C(c6ccccc6)c6ccccn6)CC5)C(F)(F)C4)c3C2=O)C(=O)N1 (stereo not drawn) | IV10 (50% < IV 10 ≤ 60%) | IV7 (20% < IV7 ≤ 30%) | 1a7 (50% ≤ 1a7 < 60%) | 1a9 (70% ≤ 1a9 < 80%) | A (0% ≤ substrate protein remaining % ≤ 80%) | B (80%< substrate protein remaining %≤ 100%) | B (80%< substrate protein remaining %≤ 100%) | B (80%< substrate protein remaining %≤ 100%) | A (0% ≤ substrate protein remaining % ≤ 80%) | B (80%< substrate protein remaining %≤ 100%) | IV9 (40% < IV9 ≤ 50%) | IV8 (30% < IV8 ≤ 40%) | IV10 (50% < IV 10 ≤ 60%) | IV9 (40% < IV9 ≤ 50%) | 
a3 (30% < a3 ≤ 40%) | a7 (70% < a7 ≤80%) | CC1(C)CCC(CN2CCN(C3CCN(Cc4ccc5c(c4F)CN(C4CCC(=O)NC4=O)C5=O)CC3(F)F)CC2)=C(c2ccc(Cl)cc2)C1 (stereo not drawn) |  |  |  |  | B (80%< substrate protein remaining %≤ 100%) | B (80%< substrate protein remaining %≤ 100%) | B (80%< substrate protein remaining %≤ 100%) | B (80%< substrate protein remaining %≤ 100%) | B (80%< substrate protein remaining %≤ 100%) | A (0% ≤ substrate protein remaining % ≤ 80%) | IV9 (40% < IV9 ≤ 50%) | IV8 (30% < IV8 ≤ 40%) | IV9 (40% < IV9 ≤ 50%) | IV8 (30% < IV8 ≤ 40%) | 
